# Measured values from patent US4933332A, “11-desoxy-17-α-hydroxycorticosterone derivatives” (priority 1988, dated 1990).
# What was measured:
# L 1210 = assay: Antitumor effect on grafted hemoblastoses (L 1210), extension of lifespan; type: in vivo, mice and rats; conditions: days 2-6 after grafting, effective dose range per compound, 24 h × 5
# P-388 = assay: Antitumor effect on grafted hemoblastoses (P-388), extension of lifespan; type: in vivo, mice and rats; conditions: days 2-6 after grafting, effective dose range per compound, 24 h × 5
# MOPG-406 = assay: Antitumor effect on grafted hemoblastoses (MOPC-406), extension of lifespan; type: in vivo, mice and rats; conditions: days 2-6 after grafting, effective dose range per compound, 24 h × 5
# [1] = test system: Viral leukosis Mazurenko LMC-1; assay: Antitumor effect on grafted hemoblastoses (LMC-1), extension of lifespan; type: in vivo, mice and rats; conditions: days 2-6 after grafting, effective dose range per compound, 24 h × 5
# Ca-755 = assay: Antitumor effect on grafted solid tumor Ca-755; type: in vivo, mice and rats; conditions: days 2-6, effective dose range per compound, 24 h × 5, "+" = stimulation of tumor growth
# S-37 = assay: Antitumor effect on grafted solid tumor S-37; type: in vivo, mice and rats; conditions: days 2-6, effective dose range per compound, 24 h × 5
# S-180 = assay: Antitumor effect on grafted solid tumor S-180; type: in vivo, mice and rats; conditions: days 2-6, effective dose range per compound, 24 h × 5, "+" = stimulation of tumor growth
# Hepatoma G-60 = assay: Antitumor effect on grafted hepatoma G-60; type: in vivo, mice and rats; conditions: days 6-10, effective dose range per compound, 24 h × 5
# Hepatoma G-61 = assay: Antitumor effect on grafted hepatoma G-61; type: in vivo, mice and rats; conditions: days 7-11, effective dose range per compound, 24 h × 5
# [2] = test system: Alveolar mammary cancer RMK-1; assay: Antitumor effect on grafted alveolar mammary cancer RMK-1; type: in vivo, mice and rats; conditions: days 3-7, effective dose range per compound, 24 h × 5, "+" = stimulation of tumor growth
# La = conditions: days 1-5 after grafting, effective dose range per compound, 24 h × 5
structure (smiles),measurement,setting,value
O=C(O)Cc1ccc(N(CCCl)CCCl)cc1,Extension of the lifespan of the animals (ELA),L 1210,15%
same,Extension of the lifespan of the animals (ELA),P-388,87%
same,Extension of the lifespan of the animals (ELA),MOPG-406,41%
same,Extension of the lifespan of the animals (ELA),[1],9%
same,Maximum tumor growth inhibition,Ca-755,87%
same,Maximum tumor growth inhibition,S-37,94%
same,Maximum tumor growth inhibition,S-180,56%
same,Maximum tumor growth inhibition,Hepatoma G-60,86%
same,Maximum tumor growth inhibition,Hepatoma G-61,53%
same,Maximum tumor growth inhibition,[2],27%
same,Extension of the lifespan of the animals (ELA),La,46%
